Among the data in paper PMC8720280 are koff and kon values, retold here.

Assay in all cases: BLI
(Biolayer interferometry detects binding as a change in optical thickness at a sensor tip.)

One assay deals with Tiga. To be noted: fit R^2 0.9770.
In the next assay the target is KMTR2. To be noted: fit R^2 0.984.
A further assay has as its target AMG655. To be noted: fit R^2 0.9870.

In the case of “WT DR5 recombinant protein (IgG4-Fc tagged extracellular domain of human DR5) (from UniProt O14763-1) E98A; M99A”, the koff is 0.000226 s⁻¹ in the assay with Tiga and 1.61e-05 s⁻¹ with KMTR2. Also, the kon with KMTR2 was 509000 M⁻¹ s⁻¹; with AMG655, 604000 M⁻¹ s⁻¹.

One may read the koff as the rate constant with which the complex falls apart. A higher koff goes with a short-lived complex. For orientation: kon means the rate constant with which the complex forms. Read a low kon as slower complex formation.
